# In publication PMC12836348, “Alanine Mutagenesis Identifies Specific Amino Acids of Nemertide Alpha‑1 Activity and Its Binding to Target Receptors” (Journal of Natural Products, 2025):
# Chains of the proteins cited; added tags and fusions are not shown. Lines headed by an entry give the natural chain unless they say otherwise; changes in a name come on top.
# UniProt P15390, whole entry: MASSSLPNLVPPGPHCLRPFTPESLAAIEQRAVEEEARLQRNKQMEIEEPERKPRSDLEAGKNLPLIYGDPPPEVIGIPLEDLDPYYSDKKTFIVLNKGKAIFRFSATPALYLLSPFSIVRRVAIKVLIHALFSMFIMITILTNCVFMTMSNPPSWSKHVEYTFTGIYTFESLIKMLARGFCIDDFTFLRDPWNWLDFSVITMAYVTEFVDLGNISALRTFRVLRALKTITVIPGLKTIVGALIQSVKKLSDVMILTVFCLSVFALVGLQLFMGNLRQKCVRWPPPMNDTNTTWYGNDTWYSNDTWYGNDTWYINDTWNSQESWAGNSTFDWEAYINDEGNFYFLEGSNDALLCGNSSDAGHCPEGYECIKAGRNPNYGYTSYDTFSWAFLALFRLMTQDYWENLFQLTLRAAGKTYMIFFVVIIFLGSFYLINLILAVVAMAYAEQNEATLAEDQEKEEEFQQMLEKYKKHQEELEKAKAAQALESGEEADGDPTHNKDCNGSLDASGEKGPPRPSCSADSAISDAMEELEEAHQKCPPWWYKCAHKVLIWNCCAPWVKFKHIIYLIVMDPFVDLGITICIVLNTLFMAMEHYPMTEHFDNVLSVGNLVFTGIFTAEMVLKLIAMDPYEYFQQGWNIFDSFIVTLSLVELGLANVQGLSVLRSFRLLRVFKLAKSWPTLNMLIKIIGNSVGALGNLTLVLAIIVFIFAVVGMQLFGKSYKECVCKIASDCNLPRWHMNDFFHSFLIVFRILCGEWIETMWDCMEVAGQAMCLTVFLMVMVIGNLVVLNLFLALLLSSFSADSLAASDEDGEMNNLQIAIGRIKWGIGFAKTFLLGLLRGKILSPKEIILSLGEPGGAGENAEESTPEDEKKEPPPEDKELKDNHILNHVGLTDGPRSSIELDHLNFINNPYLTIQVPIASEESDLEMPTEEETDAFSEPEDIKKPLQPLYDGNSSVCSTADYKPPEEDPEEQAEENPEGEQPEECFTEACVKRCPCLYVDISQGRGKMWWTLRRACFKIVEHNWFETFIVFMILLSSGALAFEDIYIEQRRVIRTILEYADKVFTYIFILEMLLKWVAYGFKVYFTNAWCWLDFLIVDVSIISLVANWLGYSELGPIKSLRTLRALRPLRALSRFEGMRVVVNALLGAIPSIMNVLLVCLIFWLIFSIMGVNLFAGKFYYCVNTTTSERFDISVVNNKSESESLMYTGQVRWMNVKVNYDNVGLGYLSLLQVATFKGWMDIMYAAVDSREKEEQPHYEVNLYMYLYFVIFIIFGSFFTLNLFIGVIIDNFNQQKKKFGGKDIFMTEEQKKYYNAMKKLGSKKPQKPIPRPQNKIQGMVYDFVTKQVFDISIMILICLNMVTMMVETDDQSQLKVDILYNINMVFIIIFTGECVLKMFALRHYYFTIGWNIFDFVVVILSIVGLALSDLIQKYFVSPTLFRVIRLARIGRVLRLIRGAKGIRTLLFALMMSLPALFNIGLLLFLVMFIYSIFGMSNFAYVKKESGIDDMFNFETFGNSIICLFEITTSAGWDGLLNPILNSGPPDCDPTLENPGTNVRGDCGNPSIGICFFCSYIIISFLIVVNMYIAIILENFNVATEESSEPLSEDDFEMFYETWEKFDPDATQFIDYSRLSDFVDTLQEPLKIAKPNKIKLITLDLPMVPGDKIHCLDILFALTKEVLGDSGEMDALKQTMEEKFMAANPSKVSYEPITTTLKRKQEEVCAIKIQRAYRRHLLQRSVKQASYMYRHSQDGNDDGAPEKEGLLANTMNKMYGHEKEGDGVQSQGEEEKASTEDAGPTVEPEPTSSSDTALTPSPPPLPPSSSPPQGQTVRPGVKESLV
# UniProt P63142, whole entry: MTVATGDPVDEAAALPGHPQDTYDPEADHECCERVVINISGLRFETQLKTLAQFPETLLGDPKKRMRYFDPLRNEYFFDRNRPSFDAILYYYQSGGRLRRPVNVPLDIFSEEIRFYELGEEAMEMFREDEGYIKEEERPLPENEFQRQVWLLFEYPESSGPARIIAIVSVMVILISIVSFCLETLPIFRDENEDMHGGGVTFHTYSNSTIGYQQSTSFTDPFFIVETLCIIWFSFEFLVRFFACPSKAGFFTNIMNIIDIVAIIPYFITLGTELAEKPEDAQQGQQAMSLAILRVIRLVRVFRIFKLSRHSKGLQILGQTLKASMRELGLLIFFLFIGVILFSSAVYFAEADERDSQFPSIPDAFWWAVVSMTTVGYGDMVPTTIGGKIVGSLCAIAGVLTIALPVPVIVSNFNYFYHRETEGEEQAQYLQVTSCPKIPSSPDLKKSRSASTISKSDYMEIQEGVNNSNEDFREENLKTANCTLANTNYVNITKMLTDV
# UniProt Q12809: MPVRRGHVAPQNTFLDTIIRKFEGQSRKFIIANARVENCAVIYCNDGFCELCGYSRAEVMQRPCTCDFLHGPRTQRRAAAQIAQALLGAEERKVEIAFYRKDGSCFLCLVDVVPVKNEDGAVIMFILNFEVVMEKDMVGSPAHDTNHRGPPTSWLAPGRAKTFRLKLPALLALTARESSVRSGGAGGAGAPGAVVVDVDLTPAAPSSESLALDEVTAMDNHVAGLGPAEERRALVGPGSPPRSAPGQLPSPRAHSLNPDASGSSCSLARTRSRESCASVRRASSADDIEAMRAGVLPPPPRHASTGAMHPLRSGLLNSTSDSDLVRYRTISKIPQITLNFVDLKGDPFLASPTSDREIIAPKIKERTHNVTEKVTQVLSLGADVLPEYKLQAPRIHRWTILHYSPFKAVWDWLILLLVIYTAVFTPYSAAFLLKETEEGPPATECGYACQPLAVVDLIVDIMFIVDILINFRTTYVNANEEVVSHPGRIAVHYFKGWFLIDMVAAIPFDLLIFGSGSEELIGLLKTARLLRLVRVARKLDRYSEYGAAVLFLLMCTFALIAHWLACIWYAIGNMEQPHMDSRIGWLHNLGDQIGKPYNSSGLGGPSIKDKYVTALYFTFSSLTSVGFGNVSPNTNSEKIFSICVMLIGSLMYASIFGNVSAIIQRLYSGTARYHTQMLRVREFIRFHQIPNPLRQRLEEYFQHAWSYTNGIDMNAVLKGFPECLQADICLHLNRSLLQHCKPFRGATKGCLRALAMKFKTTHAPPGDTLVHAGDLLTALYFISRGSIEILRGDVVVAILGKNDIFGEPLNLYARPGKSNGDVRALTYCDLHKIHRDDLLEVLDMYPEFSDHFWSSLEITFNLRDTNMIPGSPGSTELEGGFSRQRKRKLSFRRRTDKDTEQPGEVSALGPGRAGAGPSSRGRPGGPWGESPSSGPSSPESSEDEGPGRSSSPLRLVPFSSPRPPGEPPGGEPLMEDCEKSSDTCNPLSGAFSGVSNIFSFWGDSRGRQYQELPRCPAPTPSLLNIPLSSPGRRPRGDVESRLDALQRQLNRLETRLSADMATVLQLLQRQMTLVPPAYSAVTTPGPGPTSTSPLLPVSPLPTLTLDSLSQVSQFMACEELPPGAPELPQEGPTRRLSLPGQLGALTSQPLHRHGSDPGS
# What was measured:
# [1] = system: BgNav1; assay: Two-electrode voltage clamp, BgNav1 expressed in Xenopus laevis oocytes; format: cell-based, Blattella germanica; conditions: ex vivo, I30ms/Ipeak, Hill fit, n ≥ 3, highest tested concentration 50 μM
# [2] = target: T1, rNaV1.4 (Rattus norvegicus, UniProt P15390); assay: Two-electrode voltage clamp, Nav1.4 in Xenopus laevis oocytes; format: cell-based; conditions: ex vivo, Hill fit, n ≥ 3, highest tested concentration 50 μM
# T1 construct: expressed in transfected cells; host or cells: Xenopus laevis oocytes (cRNA injection)
# [3] = target: Kv1.2 (Rattus norvegicus, UniProt P63142); assay: Ion channel panel, Kv1.2; format: cell-based; design: key: “+” means tested and produced effect; “–“ means tested but no effect; conditions: S12A at 5 μM; Xenopus oocytes, n ≥ 3
# Description: (§1) To assess the concentration–response relationships, data were fitted with the Hill equation: y = 100/[1 + (EC50/[toxin])^ h ], where y is the amplitude of the toxin-induced effect (y = I 30 ms/I peak where I 30 ms is the current value at 30 ms in the presence of toxin and I peak is the peak current amplitude in control conditions), EC50 is the toxin concentration at half-maximal efficacy, [toxin] is the toxin concentration, and h is the Hill coefficient. Potassium and calcium currents were evoked by a 500 ms depolarization to the voltage corresponding to the maximal activation of the channels in control conditions from a holding potential of −90 mV. Elicited currents were sampled at 1 kHz and filtered at 0.5 kHz. […] ASIC1a currents were measured in ND96 solutions at a pH of 7.4 and 4.5, at a holding potential of −70 mV during 400 s, and the data were filtered at 20 Hz. EnaC currents were measured by clamping oocytes at a holding potential of −60 mV and perfusing with low- (1 mM) and high- (96 mM) sodium ND96. Opioid currents were measured by clamping the potential to −70 mV and changing the perfusion solution from ND96 to high-potassium (HK) solution composed of 96 mM KCl, 2 mM NaCl, 1 mM MgCl2, 1.8 mM CaCl2, and 5 mM HEPES, with a final pH of 7.5. […] TRPV1 and TRPA1 currents were continuously monitored in a perfusing ND96 solution, following a protocol at −90 mV for 400 s. […]
# [4] = system: Kv1.5; assay: Ion channel panel, Kv1.5; format: cell-based; design: key: “+” means tested and produced effect; “–“ means tested but no effect; conditions: S12A at 5 μM; Xenopus oocytes, n ≥ 3
# Description: as §1
# [5] = system: Kv2.1; assay: Ion channel panel, Kv2.1; format: cell-based; design: key: “+” means tested and produced effect; “–“ means tested but no effect; conditions: S12A at 5 μM; Xenopus oocytes, n ≥ 3
# Description: as §1
# [6] = system: Kv4.3; assay: Ion channel panel, Kv4.3; format: cell-based; design: key: “+” means tested and produced effect; “–“ means tested but no effect; conditions: S12A at 5 μM; Xenopus oocytes, n ≥ 3
# Description: as §1
# [7] = system: Kv7.2/Kv7.3; assay: Ion channel panel, Kv7.2/Kv7.3; format: cell-based; design: key: “+” means tested and produced effect; “–“ means tested but no effect; conditions: S12A at 5 μM; Xenopus oocytes, n ≥ 3
# Description: as §1
# [8] = target: Kv11.1 (hERG) (Homo sapiens, UniProt Q12809); assay: Ion channel panel, Kv11.1 (hERG); format: cell-based; design: key: “+” means tested and produced effect; “–“ means tested but no effect; conditions: S12A at 5 μM; Xenopus oocytes, n ≥ 3
# Description: as §1
# [9] = system: KQT-1; assay: Ion channel panel, KQT-1; format: cell-based; design: key: “+” means tested and produced effect; “–“ means tested but no effect; conditions: S12A at 5 μM; Xenopus oocytes, n ≥ 3
# Description: as §1
# [10] = system: Cav3.1; assay: Ion channel panel, Cav3.1; format: cell-based; design: key: “+” means tested and produced effect; “–“ means tested but no effect; conditions: S12A at 5 μM; Xenopus oocytes, n ≥ 3
# Description: as §1
# [11] = system: Cav3.2; assay: Ion channel panel, Cav3.2; format: cell-based; design: key: “+” means tested and produced effect; “–“ means tested but no effect; conditions: S12A at 5 μM; Xenopus oocytes, n ≥ 3
# Description: as §1
# [12] = system: α3β2; assay: Ion channel panel, nAChR α3β2; format: cell-based; design: key: “+” means tested and produced effect; “–“ means tested but no effect; conditions: S12A at 5 μM, oocytes at −70 mV, 5 min incubation, n ≥ 3
# Description: as §1
# [13] = system: α7; assay: Ion channel panel, nAChR α7; format: cell-based; design: key: “+” means tested and produced effect; “–“ means tested but no effect; conditions: S12A at 5 μM, oocytes at −70 mV, 5 min incubation, n ≥ 3
# Description: as §1
# [14] = system: ASIC1a; assay: Ion channel panel, ASIC1a; format: cell-based; design: key: “+” means tested and produced effect; “–“ means tested but no effect; conditions: S12A at 5 μM; ND96 pH 7.4 and 4.5, −70 mV, n ≥ 3
# [15] = system: μ-Opoid receptor; assay: Ion channel panel, μ-opioid receptor; format: cell-based; design: key: “+” means tested and produced effect; “–“ means tested but no effect; conditions: S12A at 5 μM; −70 mV, HK solution, 0.2 μM morphine, n ≥ 3
# Description: as §1
structure (smiles),measurement,setting,value
CC[C@H](C)[C@@H]1NC(=O)[C@@H](NC(=O)CN)CSSC[C@@H]2NC(=O)[C@@H]3CSSC[C@@H](C(=O)N[C@@H](CC(N)=O)C(=O)N4C[C@H](O)C[C@H]4C(=O)N4C[C@H](O)C[C@H]4C(=O)N[C@@H](CC(N)=O)C(=O)N[C@@H](CCC(N)=O)C(=O)O)NC(=O)[C@H](CCCCN)NC(=O)[C@H](Cc4ccccc4)NC(=O)[C@H](CC(N)=O)NC(=O)[C@H](Cc4c[nH]c5ccccc45)NC(=O)CNC(=O)[C@H](CSSC[C@H](NC(=O)[C@H](Cc4ccccc4)NC(=O)[C@H](CO)NC(=O)CNC(=O)[C@H]([C@@H](C)O)NC(=O)[C@H](C)NC1=O)C(=O)N[C@@H]([C@@H](C)O)C(=O)N[C@@H](CC(C)C)C(=O)N[C@@H](C)C(=O)N[C@@H](CCCCN)C(=O)NCC(=O)N3)NC(=O)[C@H](CC(N)=O)NC(=O)[C@H](CCCCN)NC(=O)[C@H]([C@@H](C)O)NC2=O [Peptide S12A],EC50,[1],281 ± 75 nM
same,EC50 Nav1.4,[2],no detectable activity
same,effect on Kv1.2,[3],–
same,effect on Kv1.5,[4],–
same,effect on Kv2.1,[5],–
same,effect on Kv4.3,[6],–
same,effect on Kv7.2/Kv7.3,[7],–
same,effect on Kv11.1 (hERG),[8],–
same,effect on KQT-1,[9],–
same,effect on Cav3.1,[10],–
same,effect on Cav3.2,[11],–
same,effect on α3β2,[12],–
same,effect on α7,[13],–
same,effect on ASIC1a,[14],–
same,effect on μ-Opoid receptor,[15],–
